B1: RAC-alpha serine/threonine-protein kinase (Homo sapiens), P31749 (parent)
chain: MSDVAIVKEGWLHKRGEYIKTWRPRYFLLKNDGTFIGYKERPQDVDQREAPLNNFSVAQCQLMKTERPRPNTFIIRCLQWTTVIERTFHVETPEEREEWTTAIQTVADGLKKQEEEEMDFRSGSPSDNSGAEEMEVSLAKPKHRVTMNEFEYLKLLGKGTFGKVILVKEKATGRYYAMKILKKEVIVAKDEVAHTLTENRVLQNSRHPFLTALKYSFQTHDRLCFVMEYANGGELFFHLSRERVFSEDRARFYGAEIVSALDYLHSEKNVVYRDLKLENLMLDKDGHIKITDFGLCKEGIKDGATMKTFCGTPEYLAPEVLEDNDYGRAVDWWGLGVVMYEMMCGRLPFYNQDHEKLFELILMEEIRFPRTLGPEAKSLLSGLLKKDPKQRLGGGSEDAKEIMQHRFFAGIVWQHVYEKKLSPPFKPQVTSETDTRYFDEEFTAQMITITPPDQDDSMECVDSERRPHFPQFSYSASGTA

Variants of: B1
Details: with vime_human VIM

Variant | effect of a mutation on the interaction
K179A;T308A;S473A | decreasing interaction

— IntAct's records for PubMed 20856200
